Data on 1 molecule can be found in ChEMBL document CHEMBL4304818, “1,3,4-Oxadiazol-2-ylbenzenesulfonamides as privileged structures for the inhibition of monoamine oxidase B” (Bioorg Med Chem Lett, 2019).

The assay is filed under the species Homo sapiens. Kind of assay: Selectivity index, ratio of IC50 for human recombinant MAO-A expressed in insect cells microsomes to IC50 for human recombinant MAO-B expressed in insect cells microsomes. In short, it runs like this: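 Recombinant human MAO-A and MAO-B as enzyme sources with kynuramine as non-selective substrate; product 4-hydroxyquinoline read by fluorescence spectrophotometry. Activity measured across a range of inhibitor concentrations, sigmoidal rate vs log[inhibitor] curves fitted for IC50; triplicate measurements, mean ± SD. Top concentration tested 100 µM. SI taken as IC50(MAO-A)/IC50(MAO-B).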

As for `NS(=O)(=O)c1ccc(-c2nnc(-c3ccc(Cl)c(Cl)c3)o2)cc1`, the Ratio IC50 amounted to 17100.
